Results reported in PubChem BioAssay AID624169 (The Scripps Research Institute Molecular Screening Center, 2012).
This is a selection; strong and weak results do not stand in their true shares. Some structures show a salt or complex split into parts, the way the source records it. Activity calls are given as the source filed them.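 Rule for the calls: active = activation above a run cutoff, the mean activation of all tested compounds plus 3 SD (cut at about 14% in these data); inactive = the rest.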

Sequences of proteins named here, by UniProt entry; tags and fusion partners are left off.
UniProt P35363, whole entry: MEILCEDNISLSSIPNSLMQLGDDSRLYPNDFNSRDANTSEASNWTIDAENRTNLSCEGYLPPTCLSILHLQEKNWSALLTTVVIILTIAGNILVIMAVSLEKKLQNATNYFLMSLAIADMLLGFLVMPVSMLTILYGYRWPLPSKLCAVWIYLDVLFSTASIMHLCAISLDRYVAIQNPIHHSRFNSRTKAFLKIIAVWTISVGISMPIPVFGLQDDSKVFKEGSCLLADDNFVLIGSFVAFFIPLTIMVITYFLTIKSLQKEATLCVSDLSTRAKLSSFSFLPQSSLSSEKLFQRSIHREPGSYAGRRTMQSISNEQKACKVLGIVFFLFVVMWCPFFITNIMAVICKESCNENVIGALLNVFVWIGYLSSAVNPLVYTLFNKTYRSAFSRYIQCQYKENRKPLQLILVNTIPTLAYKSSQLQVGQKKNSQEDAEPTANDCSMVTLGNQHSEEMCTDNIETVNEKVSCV

What follows are compounds tested against 5-hydroxytryptamine receptor 2A (Mus musculus) (UniProt P35363) (assay: activation of mouse 5-HT2A receptor – cell-based, luminescence, primary screen (AID 624169;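 note: 0% = plate median of compound wells and 100% = 30 µM serotonin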)). Conditions: CHO-K1 mHTR2A beta-arrestin complementation, at 7.6 µM, hits give high values, percent of 30 µM serotonin response.

| Compound | activation |
| --- | --- |
| O=[N+]([O-])c1cc([N+](=O)[O-])c(C(F)(F)F)c([N+](=O)[O-])c1O | inactive: 14.4% |
| Cc1ccccc1NP(C)(=O)Nc1ccccc1C | inactive: 3.58% |
| CP(=O)(Nc1ccc2c(c1)OCCO2)Oc1ccccc1 (stereo not drawn) | inactive: -1.27% |
| CCOP(C)(=S)SCC(=O)NC(C)(CC)C(=O)O (stereo not drawn) | inactive: 2.68% |
| CP(=O)(Nc1ccc(SC(F)(F)F)cc1)Oc1ccc(F)cc1 (stereo not drawn) | inactive: -3.15% |
| Cc1c(C(c2ccc3c(c2)OCO3)c2c(C)n(C)n(-c3ccccc3)c2=O)c(=O)n(-c2ccccc2)n1C.O=[N+]([O-])c1cc([N+](=O)[O-])c(O)c([N+](=O)[O-])c1 | inactive: 1.66% |
| Cc1cc(-c2cccc3ccccc23)c(C)cn1.O=[N+]([O-])c1cc([N+](=O)[O-])c(O)c([N+](=O)[O-])c1 | inactive: -0.55% |
| O=[N+]([O-])c1cc([N+](=O)[O-])c(NCC2CCS(=O)(=O)C2)c([N+](=O)[O-])c1 (stereo not drawn) | inactive: -1.8% |
| O=[N+]([O-])c1ccc(OP2(=O)COCCO2)cc1 (stereo not drawn) | inactive: -0.55% |
| COc1ccc(NP(C)(=O)Oc2ccccc2OC)cc1 (stereo not drawn) | inactive: 7.13% |
| CN(C)CCOC(=O)C(O)(c1ccccc1)C1CCCCC1 (stereo not drawn) | inactive: -4.53% |
| COc1ccc(OP(C)(=O)Nc2cccc(Br)c2)cc1 (stereo not drawn) | inactive: -1.08% |
| O=[N+]([O-])c1cc([N+](=O)[O-])c(OC2CCCCC2O)c([N+](=O)[O-])c1 (stereo not drawn) | inactive: 0.84% |
| CCCCCOc1ccc(NP(C)(=O)Oc2ccc(Cl)cc2Cl)cc1 (stereo not drawn) | inactive: -1.52% |
| CP(=O)(Nc1ccccc1)Oc1ccc(F)cc1 (stereo not drawn) | inactive: -1.12% |
| CCN(CC)CCCOC(=O)C(O)(c1ccccc1)C1CCCCC1 (stereo not drawn) | inactive: -9.23% |
| Cc1c([N+](=O)[O-])cc([N+](=O)[O-])c(Br)c1[N+](=O)[O-] | inactive: -4.45% |
| COc1ccc(OP(C)(=O)Nc2ccc(SC(F)(F)F)cc2)cc1 (stereo not drawn) | inactive: -7.78% |
| CCOC(=O)c1ccc(NP(C)(=O)Oc2ccc(F)cc2)cc1 (stereo not drawn) | inactive: 0.3% |
| CCN(CC)CCCNc1ccccc1[N+](=O)[O-].O=[N+]([O-])c1cc([N+](=O)[O-])c(O)c([N+](=O)[O-])c1 | inactive: -3.09% |

| Compound | activation |
| --- | --- |
| COc1ccc2c(c1O)-c1c(O)c(OC)cc3c1[C@H](C2)[N+](C)(C)CC3.O=[N+]([O-])c1cc([N+](=O)[O-])c([O-])c([N+](=O)[O-])c1[O-] | inactive: 1.08% |
| O=C(OCCN1CCN(CCOCc2ccccc2)CC1)C(O)(c1ccccc1)c1ccccc1 | inactive: -2.86% |
| O=C(OC1CN2CCC1CC2)c1ccc([N+](=O)[O-])cc1 (stereo not drawn) | inactive: 4.23% |
| CC(C)c1ccc(OP(C)(=O)Nc2ccc(SC(F)(F)F)cc2)cc1 (stereo not drawn) | inactive: -4.41% |
| CP(=O)(Nc1ccccc1F)Oc1ccccc1 (stereo not drawn) | inactive: -2.61% |
| O=[N+]([O-])c1cc([N+](=O)[O-])c(Nc2ccc(Cl)cc2)c([N+](=O)[O-])c1 | inactive: -3.9% |
| CCc1ccc(OP(C)(=O)O)cc1 | inactive: 1.54% |
| CP(=O)(Nc1ccccn1)Oc1ccccc1 (stereo not drawn) | inactive: 4.11% |
| COc1ccccc1OP(C)(=O)Nc1ccc(C)cc1C (stereo not drawn) | inactive: -0.49% |
| O=[N+]([O-])c1cc([N+](=O)[O-])c(Nc2ccccn2)c([N+](=O)[O-])c1 | inactive: -5.85% |
| Cc1c(NP(C)(=O)Oc2ccc(C(C)C)cc2)c(=O)n(-c2ccccc2)n1C (stereo not drawn) | inactive: -0.28% |
| CN(C)CCOC(=O)C(O)(c1ccccc1)C1CCCC1 (stereo not drawn) | inactive: -1.01% |
| COc1ccc(OP(C)(=O)Nc2ccccn2)cc1 (stereo not drawn) | inactive: 1.65% |
| COc1ccccc1OP(C)(=O)Nc1ccc(Br)cc1 (stereo not drawn) | inactive: -1.62% |
| CP(=O)(OCCOc1ccccc1)OCCOc1ccccc1 | inactive: 0.42% |
| CP(=O)(Nc1ccc(Cl)cc1Cl)Oc1ccccc1 (stereo not drawn) | inactive: 2.24% |
| CCCCCCCCCCCCCCCC1C[N+](C)(C)CCOP(C)(=O)O1 (stereo not drawn) | inactive: 4.11% |
| COc1ccc(OP(C)(=O)Nc2ccccc2Br)cc1 (stereo not drawn) | inactive: -1.06% |
| COc1ccccc1OP(C)(=O)Nc1ccc(C)c(C)c1 (stereo not drawn) | inactive: -5.27% |
| O=C1C(O)=C([N+](=O)[O-])C(=O)C(O)=C1[N+](=O)[O-] | inactive: -3.82% |

| Compound | activation |
| --- | --- |
| Cc1cc(C)cc(OP(C)(=O)Nc2cccc(C(F)(F)F)c2)c1 (stereo not drawn) | inactive: 2.11% |
| CP(=O)(OC12CC3CC(CC(C3)C1)C2)OC12CC3CC(CC(C3)C1)C2 | inactive: -1.96% |
| CCOC(=O)c1ccc(NP(C)(=O)Oc2ccc(Cl)cc2)cc1 (stereo not drawn) | inactive: -1.7% |
| CN(C)C(=O)c1c([N+](=O)[O-])cc([N+](=O)[O-])cc1[N+](=O)[O-] | inactive: 2.52% |
| CP(=O)(Nc1ccc(Cl)cc1)Oc1ccc(F)cc1 (stereo not drawn) | inactive: 2.07% |
| CC(C)(C)c1ccc(OP(C)(=O)O)cc1 | inactive: 0.32% |
| COc1ccccc1OP(C)(=O)Nc1ccccc1Br (stereo not drawn) | inactive: 2.57% |
| CP(=O)(Oc1ccccc1)N1CCOC1=O (stereo not drawn) | inactive: -4.96% |
| CCc1ccc(OP(C)(=O)Nc2cccnc2)cc1 (stereo not drawn) | inactive: 2.73% |
| COc1ccccc1OP(C)(=O)Nc1c(C)n(C)n(-c2ccccc2)c1=O (stereo not drawn) | inactive: -2.43% |
| O=C(OCCCN1CCCC1)C(O)(c1ccccc1)C1CCCCC1 (stereo not drawn) | inactive: -5.77% |
| CCN(CC)CC(O)COC(=O)C(O)(c1ccccc1)C1CCCCC1 (stereo not drawn) | inactive: -4.71% |
| COc1ccc(OP(C)(=O)Nc2ccc(Br)cc2)cc1 (stereo not drawn) | inactive: -2.63% |
| CP(=O)(Nc1ccccn1)Oc1ccc(Cl)cc1 (stereo not drawn) | inactive: -0.88% |
| CCOP(C)(=S)SCC(=O)NC(C)C(=O)O (stereo not drawn) | inactive: 8.27% |
| O=[N+]([O-])c1cc([N+](=O)[O-])c(O)c([N+](=O)[O-])c1.c1ccc(Oc2ccncc2)cc1 | inactive: -2.57% |
| CCOC(=O)c1ccc(NP(C)(=O)Oc2ccc(OC)cc2)cc1 (stereo not drawn) | inactive: 3.48% |
| CCc1ccc(OP(C)(=O)N2CCN(c3ccc([N+](=O)[O-])cc3)CC2)cc1 (stereo not drawn) | inactive: 6.28% |
